This note sets out measurements from patent EP2342182B1 (H. Lundbeck A/S, priority 2008, dated 2010).

By UniProt entry, the sequences of proteins in these tests, tags left out.
UniProt P29371, whole entry: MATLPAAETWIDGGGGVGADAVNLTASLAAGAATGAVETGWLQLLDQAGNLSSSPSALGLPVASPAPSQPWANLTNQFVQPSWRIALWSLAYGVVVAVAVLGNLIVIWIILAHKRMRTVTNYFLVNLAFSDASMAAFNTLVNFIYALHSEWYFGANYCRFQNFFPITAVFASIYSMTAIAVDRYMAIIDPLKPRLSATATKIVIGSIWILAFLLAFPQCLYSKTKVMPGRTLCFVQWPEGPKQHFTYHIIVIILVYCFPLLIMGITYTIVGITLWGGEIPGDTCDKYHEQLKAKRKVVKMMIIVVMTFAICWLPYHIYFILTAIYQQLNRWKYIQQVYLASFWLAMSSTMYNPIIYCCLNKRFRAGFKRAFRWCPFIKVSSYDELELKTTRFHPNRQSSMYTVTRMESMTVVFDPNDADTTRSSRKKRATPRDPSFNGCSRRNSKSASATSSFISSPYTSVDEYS

In the test the target is T1, human NK3 receptor (Homo sapiens, UniProt P29371).
T1 construct: expressed in transfected cells; membranes prepared from them
The experiment in a line: NK3 receptor efficacy and potency assay (FLIPR Calcium 4). The class given is cell-based. Particulars: agonist dose-response in BHK cells. As to the method:
The assay was performed according to the FLIPR Calcium 4 Assay kit (Molecular Devices).
For efficacy and potency evaluation of compounds, these were diluted in HBSS buffer prior to test. […] The plates were subsequently analyzed for 5 minutes before the assay was terminated. The maximal increase in fluorescence over background following each ligand addition was determined.

With neurokinin B [NKB], the “EC85 concentration of NKB” value is recorded as roughly 4 nM.
